We go through 10 compounds from PubChem BioAssay AID1189 (EPA DSSTox, 2008).

The nature of the data set: DSSTox (CPDBAS) Carcinogenic Potency Database Summary SingleCellCall Results. The conditions noted are these: animal chronic carcinogenicity bioassays, CPDB summary call. The source says:
The Carcinogenic Potency Database (CPDB) is a unique and widely used international resource of the results of over 6500 chronic, long-term animal cancer tests on over 1500 chemical substances. The CPDB provides easy access to the bioassay literature, with qualitative and quantitative analyses of both positive and negative experiments that have been published over the past 50 years in the general literature and by the National Cancer Institute/National Toxicology Program. The CPDB standardizes the diverse literature of cancer bioassays that vary widely in protocol, histopathological examination and nomenclature, and in the published author's choices of what information to provide in their papers. Results are reported in the CPDB for tests in rats, mice, hamsters, dogs, and nonhuman primates, and are based on the most positive result among all experiments for each sex-species. The DSSTox CPDBAS (all species) file incorporates data from the CPDB Summary Tables for the full list of over 1500 chemical substances tested in at least one species. A summary SingleCellCall, based on experimental bioassay results of one or more species, is provided for the entire DSSTox CPDBAS file (see Source URL).
An assignment of categorical carcinogenic activity based on minimal evidence for or against activity. […] Associated TD50 values and tumor site details for the relevant species/sex experiment supporting this overall CPDBAS SingleSiteCall are provided in the full CPDBAS DSSTox file (see Comment) and the corresponding CPDBAS Species Bioassay in PubChem.

Molecules are shown by their SMILES. Active and inactive are the calls of the source.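 Rule for the calls: active = a tumor-causing dose value with its tumor site reported for any sex and species group of a rodent or other animal cancer study; inconclusive = only studies judged inadequate by the national testing program; inactive = tested in at least one study, none positive.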 Where a call stands in place of a potency, no number is given.

Take `O[C@@H]([C@H](O)[C@H](O)CNCCCl)[C@H](O)CNCCCl`: the result was inactive. Take `CCN(N=O)C(=N)N[N+](=O)[O-]`: the outcome was active.

Consider `C[As](=O)(O)O`, for which the result was inactive. With `CN(N=O)C(=N)N[N+](=O)[O-]` the entry was “active; inactive”; with `COP(=S)(OC)SCCNC(C)=O`, “inactive; active”.

In the case of `C1CN1`, the outcome was “active; inactive”. With `O=C1C2CC=CCC2C(=O)N1SC(Cl)(Cl)C(Cl)Cl` (stereo not given) the entry was “active; inactive”; with `C[As](C)(C)=O`, “active; inactive”; with `COP(=O)(OC)N1CCOCC1`, “active”. As for `NC(=O)Nc1ccc([As](=O)(O)O)cc1`, the result was inactive.
